High-throughput results (PubChem)
ALDH1A1 block: ALDH1A1 (human) enzyme inhibition; P00352; Purified ALDH1A1, NADH fluorescence, propionaldehyde substrate; Potency, µM (doses to about 75.3 µM), without a hit: top-dose activity, negative = inhibition, usual class: inhibitors; actives 7.3% (n = 220,000); active means well fitted inhibition curve with a large enough effect, not every such curve was filed as active; inconclusive means small, poorly fitted or top-dose-only effect, or another doubt; inactive means no such curve, though single readings can be large or run the other way;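 further: potency means the concentration at half of the fitted maximal effect; plate controls were no enzyme wells and a reference inhibitor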
Sfp PPTase inh: qHTS Assay for Inhibitors of Bacillus subtilis Sfp phosphopantetheinyl transferase (PPTase). Potency, µM, inactives show max response, negative = inhibition, most hits filed as inhibitors. Biochemical Sfp PPTase activity, qHTS. AID 1490, 2009. 4'-phosphopantetheinyl transferase ffp (Bacillus subtilis), Q9F4F7. hit rate 3.5% among 310,000; active = well fitted inhibition curve with a large enough effect; inconclusive = small, poorly fitted or top-dose-only effect, or another doubt; inactive = no such curve, though single readings can be large or run the other way;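 also: the enzyme is Sfp with the accession as filed and its product quenches rhodamine fluorescence; potency is read from the fitted curve at half-maximal effect; 0% = enzyme reaction without inhibitor and -100% = no enzyme wells; top concentration of the series not given in the record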
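With Hepes-Na pH 7.6 buffer containing 10 mM MgCl2, Sfp (15 nM) modified BHQ-2-YbbR (12.5 uM) using rhodamine-CoA (5 uM). Two reads 30 minutes apart at 525/598 nm yielded each well's rate.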
G9a block: G9a (human) methyltransferase inhibition; actives 8.8% (n = 350,000); AID 504332; Q96KQ7; Potency, µM (doses to about 102 µM), without a hit: at the highest dose activity, negative = inhibition, usual class: inhibitors; G9a H3K9 monomethylation, AlphaScreen, 2 h; further: potency means the concentration at half of the fitted maximal effect; on the % scale 0 is the no-effect control and ±100 the full control effect; nearly all actives have a fitted effect of over 75% in size
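Using a bead-based AlphaScreen, monomethylated H3K9 product from 2 h room-temperature reactions (G9a 20 nM, peptide 500 nM, SAM 20 uM) was detected with 0.5 ug/mL rabbit anti-H3K9me1 antibody.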
miR-21 reporter: raises the signal of a miR-21 reporter | HeLa miR-21 FLuc reporter, luciferase, 48 h | Potency, µM (highest dose often 38.3 µM), for inactives: at the highest dose reporter change, positive = more light | 340,000 tested, under 10 active | AID 2288; active = well fitted rising curve with a large enough effect; inconclusive = small, poorly fitted or top-dose-only effect; inactive = no such curve, though single readings can be large or run the other way;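 also: % of control where 0% means no effect; miR-21 action dims this reporter so a rising signal means less miR-21 action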
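HeLa cells endogenously expressing miR-21, stably carrying CMV-driven firefly luciferase with a downstream miR-21 binding site, 2000 cells/well. Titrations up to approximately 40 uM, 48 hours; luciferase luminescence read.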
Lamin A splicing: LMNA splicing modulation. actives 0.01% (n = 200,000). HeLa LMNA splicing GFP/RFP minigene ratio, 48 h. Potency, µM (highest dose often 46.1 µM), inactives show top-dose ratio change, negative = inhibition, most hits filed as inhibitors; active means well fitted inhibition curve with a large enough effect in the signal ratio, with a control signal flat, not every such curve was filed as active; inconclusive means small, poorly fitted or top-dose-only effect, or effect the other way, or a change in a side signal; the % refers to the signal ratio; further: potency means the concentration at half of the fitted maximal effect; on the % scale 0 is the no-effect control and ±100 the full control effect
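Read-out is the ratio of GFP to DsRed2 object intensity, acquired by 488 nm laser-scanning cytometry on HeLa lamin A-EGFP minigene reporter cells. Compound incubation 48 hrs at 37 °C in Opti-MEM with 2% FBS; DMSO 0.5% final.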
JMJD2E inh: JMJD2E (human) inhibition; Potency, µM (top dose mostly 57.1 µM), for the others: top-dose activity change, negative = inhibition, usual class: inhibitors; actives 1.6% (n = 230,000); JMJD2E catalytic domain, FDH-coupled NADH fluorescence (FDH is formaldehyde dehydrogenase); AID 2147; B2RXH2; active means well fitted inhibition curve with a large enough effect, not every such curve was filed as active; inconclusive means small, poorly fitted or top-dose-only effect, or another doubt; inactive means no such curve, though single readings can be large or run the other way;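 further: potency means the concentration at half of the fitted maximal effect; 0% = wells with enzyme and -100% = buffer wells without enzyme; nearly all actives have a fitted effect of over 50% in size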
* = called active by the depositor; [ ] = another dose, or the depositor's remark. Only some compounds are listed: those with a hit (about 13% of all), similar ones and a draw of the others. Unless noted, the call rests on the fitted dose curve; in most records, active means well fitted curve in the direction sought with a large enough effect; inconclusive means small, poorly fitted or top-dose-only effect, or another doubt; inactive means no such curve, though single readings can be large; an effect the other way counts as inactive or inconclusive.

Results for CN(C)[C@@H]1CCC[C@@H]1OC(=O)C(c1ccccc1)c1ccccc1 ?
ALDH1A1 block: 11.8%; Sfp PPTase inh: inconclusive; G9a block: 12.6µM*; miR-21 reporter: -2.7%; Lamin A splicing: -0.8%; JMJD2E inh: -8.8%

Results for CSCCC(NC(=O)OCc1ccccc1)C(=O)O (stereo not drawn) ?
ALDH1A1 block: 7.2%; Sfp PPTase inh: 15.8%; G9a block: -45.6%[59 µM]; miR-21 reporter: -6.5%; Lamin A splicing: -6.3%; JMJD2E inh: inconclusive

How did CSCC[C@H](NC(=O)[C@H](Cc1ccccc1)NC[C@@H](NC[C@@H](N)CS)C(C)C)C(=O)O do in these assays?
ALDH1A1 block: -10.5%; Sfp PPTase inh: -23.6%; G9a block: 20µM*

Results for Cc1cc(C)c(NC(=O)CN2C(=O)CCSc3ccc(S(=O)(=O)N4CCCC4)cc32)c(C)c1 ?
G9a block: -1.7%[59 µM]; miR-21 reporter: -15.0%; Lamin A splicing: -12.9%[46 µM]

How did COc1ccc(C(=O)CCC(=O)Nc2cccnc2)cc1OC do in these assays?
Sfp PPTase inh: 10.1%; G9a block: 12.0%; miR-21 reporter: -1.5%

What do the screens show for `CCOc1ccc(C(C)=O)cc1COC(=O)C1=COCCO1`?
ALDH1A1 block: 14.1µM*; Sfp PPTase inh: -2.7%; G9a block: inconclusive; miR-21 reporter: -1.1%; Lamin A splicing: 20.1%; JMJD2E inh: -29.5%

Results for COc1cc(-c2nc(Cn3nnc(C(=O)Nc4cccc(Cl)c4)c3C)c(C)o2)cc(OC)c1OC ?
G9a block: 0.9%[59 µM]; miR-21 reporter: -0.9%

What do the screens show for `Cc1cccc2nc(CSCc3ccco3)cn12`?
ALDH1A1 block: -14.2%; Sfp PPTase inh: 31.6µM*; G9a block: 44.7µM*; miR-21 reporter: -46.1%; Lamin A splicing: 5.2%; JMJD2E inh: -4.1%

How did COc1ccc(NC(=O)C2CCCN2S(=O)(=O)c2ccc(Cl)cc2)cc1 (stereo not drawn) do in these assays?
Sfp PPTase inh: 9.3%; G9a block: -37.9%; miR-21 reporter: -2.2%

Results for O=C(O)COc1ccc(/C=N/NC(=O)C2CCCN2S(=O)(=O)c2ccc(Cl)cc2)cc1 (stereo not drawn) ?
ALDH1A1 block: -15.5%; Sfp PPTase inh: 6.3%; G9a block: 44.7µM*; miR-21 reporter: -4.1%; Lamin A splicing: 20.7%; JMJD2E inh: -10.2%

What do the screens show for `O=C(CSc1nnc(COc2ccc(Cl)cc2)o1)N1CCOCC1`?
ALDH1A1 block: 2.5%; Sfp PPTase inh: 3.8%; G9a block: 55.3%; miR-21 reporter: -0.4%; JMJD2E inh: 4.7%

Results for CC(Sc1nnc(COc2ccc(Cl)cc2)o1)C(=O)Nc1ccc(N2CCOCC2)cc1 (stereo not drawn) ?
G9a block: 35.5µM*

Results for Cc1nnc(SC(C)C(=O)Nc2ccc(N3CCOCC3)cc2)n1Cc1ccccc1 (stereo not drawn) ?
G9a block: 70.8µM*

Results for CC(Sc1ccccc1)C(=O)Nc1ccc(N2CCOCC2)cc1 (stereo not drawn) ?
ALDH1A1 block: -0.1%; Sfp PPTase inh: 7.0%; G9a block: -15.0%; miR-21 reporter: -7.8%; Lamin A splicing: 2.6%; JMJD2E inh: 1.3%

What do the screens show for `COc1ccc(S(=O)(=O)C(C#N)c2nc3ccccc3nc2N2CCC(C)CC2)cc1` (stereo not drawn)?
ALDH1A1 block: 17.8µM*; Sfp PPTase inh: inconclusive; G9a block: 3.16µM*; miR-21 reporter: -12.6%; Lamin A splicing: -7.7%; JMJD2E inh: inconclusive

How did CCOC(=O)N1CCN(c2nc3ccccc3nc2C(C#N)S(=O)(=O)c2ccc(C)cc2)CC1 (stereo not drawn) do in these assays?
ALDH1A1 block: inconclusive; Sfp PPTase inh: 14.1%; G9a block: 44.7µM*; miR-21 reporter: -10.2%; Lamin A splicing: -12.8%; JMJD2E inh: inconclusive

Results for CC1CCCN(c2nc3ccccc3nc2C(C#N)S(=O)(=O)c2ccccc2)C1 (stereo not drawn) ?
ALDH1A1 block: inconclusive; Sfp PPTase inh: -6.5%; G9a block: inconclusive; miR-21 reporter: -10.5%; Lamin A splicing: -0.2%; JMJD2E inh: inconclusive

What do the screens show for `Cc1ccc(S(=O)(=O)C(C#N)c2nc3ccccc3nc2N2CCN(C)CC2)cc1` (stereo not drawn)?
ALDH1A1 block: -7.3%; Sfp PPTase inh: -10.3%; G9a block: inconclusive; miR-21 reporter: 22.6%; Lamin A splicing: 3.2%; JMJD2E inh: -13.5%

What do the screens show for `Cc1ccc(S(=O)(=O)C(C#N)c2nc3ccccc3nc2N2CCCCC2)cc1` (stereo not drawn)?
ALDH1A1 block: -15.2%; Sfp PPTase inh: 3.6%; G9a block: 44.7µM*; miR-21 reporter: -5.0%; Lamin A splicing: -0.2%; JMJD2E inh: inconclusive

Results for CCc1nc(N)c(C#N)c(-c2cccc3ccccc23)c1C ?
ALDH1A1 block: 7.6%; Sfp PPTase inh: 12.7%; G9a block: 21.2%[59 µM]; miR-21 reporter: 2.1%; Lamin A splicing: -3.5%; JMJD2E inh: inconclusive

How did CCCOc1nc(N)c(C#N)c(-c2ccccc2F)c1C#N do in these assays?
ALDH1A1 block: 1µM*; Sfp PPTase inh: 10.7%; G9a block: -0.8%[59 µM]; miR-21 reporter: -25.1%; Lamin A splicing: -1.9%; JMJD2E inh: -10.3%

Results for COc1cc(/C=C2\SC(=S)N(CC(=O)O)C2=O)ccc1OC(=O)c1ccco1 ?
Sfp PPTase inh: -16.2%; G9a block: inconclusive; miR-21 reporter: 12.7%

How did COc1cc(/C=C2/SC(=S)N(CC(=O)O)C2=O)ccc1OC(=O)c1ccco1 do in these assays?
Sfp PPTase inh: -16.3%; G9a block: 44.7µM*; miR-21 reporter: 15.4%

What do the screens show for `CCOc1cc(/C=C2/SC(=S)N(CC(=O)O)C2=O)ccc1OC(=O)c1cccs1`?
Sfp PPTase inh: 4.47µM*; G9a block: inconclusive; miR-21 reporter: 9.3%; JMJD2E inh: -5.1%

How did CCCN(CCO)Cc1ccc(Br)cc1 do in these assays?
ALDH1A1 block: 0.9%; Sfp PPTase inh: -17.6%; G9a block: 8.91µM*; miR-21 reporter: -0.4%; Lamin A splicing: -1.9%; JMJD2E inh: -12.8%

Results for CCOC(=O)c1c(O)c2cc(Cl)ccc2n(CC)c1=O ?
ALDH1A1 block: 20µM*; Sfp PPTase inh: inconclusive; G9a block: -50.2%; miR-21 reporter: 0.7%; JMJD2E inh: 16.5%

How did CCCCCn1c(=O)c(C(=O)OCC)c(O)c2ccccc21 do in these assays?
ALDH1A1 block: inconclusive; Sfp PPTase inh: -8.3%; G9a block: 3.0%[12.7 µM]; miR-21 reporter: -0.5%; Lamin A splicing: 0.3%; JMJD2E inh: -2.7%

3 compounds out of the list, arranged by heavy-atom count, ascending:
How did CCCN(CCO)Cc1ccc(Br)cc1 do in these assays?
ALDH1A1 block: 0.9%; Sfp PPTase inh: -17.6%; G9a block: 8.91µM*; miR-21 reporter: -0.4%; Lamin A splicing: -1.9%; JMJD2E inh: -12.8%

Results for CCOC(=O)c1c(O)c2cc(Cl)ccc2n(CC)c1=O ?
ALDH1A1 block: 20µM*; Sfp PPTase inh: inconclusive; G9a block: -50.2%; miR-21 reporter: 0.7%; JMJD2E inh: 16.5%

How did COc1cc(/C=C2/SC(=S)N(CC(=O)O)C2=O)ccc1OC(=O)c1ccco1 do in these assays?
Sfp PPTase inh: -16.3%; G9a block: 44.7µM*; miR-21 reporter: 15.4%
